From patent publication US20090036416A1, “Novel CXCR4 Antagonist and Use Thereof” (Kyoto University, priority 2005, published 2009) come the findings set out here.

Amino acid sequences for entries named in this document (tags omitted).
UniProt P61073, whole entry: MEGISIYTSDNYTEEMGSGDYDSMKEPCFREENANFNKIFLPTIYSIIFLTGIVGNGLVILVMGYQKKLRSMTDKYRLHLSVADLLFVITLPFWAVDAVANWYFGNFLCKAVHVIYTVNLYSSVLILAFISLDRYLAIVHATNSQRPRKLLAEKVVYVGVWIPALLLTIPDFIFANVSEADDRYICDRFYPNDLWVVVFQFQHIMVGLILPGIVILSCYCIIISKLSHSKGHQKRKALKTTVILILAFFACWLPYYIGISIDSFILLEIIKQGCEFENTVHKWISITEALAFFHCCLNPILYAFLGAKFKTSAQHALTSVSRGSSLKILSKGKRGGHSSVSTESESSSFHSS

pIC50: −log10 of the molar value.

For assay [1], the target named is T1, CXCR4 (Homo sapiens, UniProt P61073). Briefly: CXCR4 binding activity: inhibition of 125I-SDF-1a bonding to CXCR4 transfected CHO cells. The conditions noted are these: inhibition of 125I-SDF-1a (0.1 nM) bonding, 1 h at 0° C. As to the method:
A CXCR4 transfected CHO cells suspended in Ham's F-12 buffer (0.5% bovine serum albumin, 20 mM HEPES buffer) were placed in a silicon-coated test tube (5×10^5 cells/120 μL/well). Cold SDF-1 a (Final concentration 0.1 μM, 15 μL/well) and a test object having one of various concentrations (15 μL/well) was added to the test tube. Thereafter, ^125I-SDF-1a (PerkinElmer, final concentration=0.1 nM, 15 μL/well) was added. The sample was incubated for an hour at 0° C., mixed with oil (dibutyl phthalate: olive oil=4:1(v/v), 500 μL/well), then centrifuged for 2 minutes at 14,000 rpm. After removing the water layer and the organic layer, the bottom part was separated from the test tube and was placed in a radioimmunoassay counting tube. Thereafter, count per minute (CPM) was measured with a γ-counter. The inhibition rate of the test compound with respect to ^125I-SDF-1 a bonding was found by the following equation. IC50 denotes a concentration of a test object whose inhibition rate is 50%.
Inhibition rate (%)=(Et−Ea)/(Et−Ec)×100

Assay [2] concerns the target T1, CXCR4. Put plainly: CXCR4 antagonistic activity: inhibition of Ca2+ movement induced by SDF-1a in CXCR4 transfected CHO cells (Fura-2). Format: cell-based. The conditions noted are these: inhibition of Ca2+ movement induced by SDF-1a (30 nM) via CXCR4. As to the method: Various aromatic compounds each having a dipicolylamine-zinc complex were prepared, and their CXCR4 antagonistic effects were examined using the following method.
A CXCR4 transfected Chinese hamster ovary(CHO) cells (3×10^4 cell/100 μL/well) were plated in each well of a flat-bottomed micro-titer tray. The samples were incubated in a CO2 incubator at 37° C., and the cells were loaded in Ham F-12 buffer(80 μL/well) for an hour at 37° C., together with 5 μM Fura-2AM (Dojindo, Kumatomo, Japan), 2.5 mM Probenecid (Sigma) and 20 mM HEPES(pH7.4).
Thereafter, the cells were washed twice with Hank's balanced salt solution (100 μL×2), and placed in a spectrofluorimeter (96 well Fluorescence Drug Screening System, Hamamatsu Photonics K.K. Japan). 30 seconds after the measurement started, the cells were incubated in Hank's balanced salt solution with plural test compounds of different concentrations. After 3 minutes, recombinant SDF-1a (PreproTech, 30 nM/[…]/well) was added.
Changes of the CXCR4 transfect CHO cell system loaded with Fura2-A[Ca^2+], were recorded in real time with a modification method of Fura-2. The CXCR4 antagonistic effect was measured based on the inhibition of Ca^2+ movement induced by the stimulation of SDF-1a via CXCR4 (IC50).

For “bis(2,2′-dipicolylamino)-p-xylene/zinc complex [Example Compound 1]”, the pIC50 at CXCR4 [1] was 7.33; on CXCR4 [2], 7.00.

For orientation: pIC50 means the negative decadic logarithm of the IC50, by convention in mol/L.
